Experimental data from ChEMBL document CHEMBL1159058, “Triazoloacridin-6-ones as novel inhibitors of the quinone oxidoreductases NQO1 and NQO2” (Bioorg Med Chem, 2010).

Organism: Homo sapiens
Assay: Selectivity ratio of IC50 for human recombinant NQO1 to IC50 for human recombinant NQO2

Going from O=c1c2ccccc2n2nnc3ccc(NCCc4ccccc4)c1c32 to COc1ccc2c(c1)c(=O)c1c(NCCc3ccccc3)ccc3nnn2c31, the Ratio IC50 rises from 5.79 to 11.2.

Work on COc1ccc2c(c1)c(=O)c1c(NCCN(C)C)ccc3nnn2c31 yielded a Ratio IC50 of 0.08.
